# Ab-14 light chain CDR variants: yeast mating affinities

Reference: Li et al. 2023, doi:10.1038/s41467-023-39022-2. File: FLAb, binding data.

Target: peptide PDVDLGDISGINAS, taken from heptad repeat 2 (HR2) of SARS-CoV-2 spike.

Parent: Ab-14, a human scFv built as VH, the linker GGGGSGGGGSGGGGS, VL. Only the CDRs of the light chain vary.
VH: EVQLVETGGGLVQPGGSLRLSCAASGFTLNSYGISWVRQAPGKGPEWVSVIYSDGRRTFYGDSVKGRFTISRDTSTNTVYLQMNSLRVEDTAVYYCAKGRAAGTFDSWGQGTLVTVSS
VL: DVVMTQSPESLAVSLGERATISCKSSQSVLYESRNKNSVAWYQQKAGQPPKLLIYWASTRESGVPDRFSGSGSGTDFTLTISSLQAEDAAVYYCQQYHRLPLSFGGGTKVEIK

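Phage display of a naive human antibody library on the peptide gave the parent. This is the validation round: designs drawn from the data on random variants, tested in the same kind of assay. Several design methods are mixed in this list. The assay is AlphaSeq: two haploid yeast populations carry antibody and antigen on their surface. The frequency of each diploid, read from paired DNA barcodes, reflects how well the two displayed proteins bind. Each replicate has its own calibration line, from reference interactions of the BCL2 family. There are six technical replicates.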

Variants are written as CDR1, CDR2 and CDR3 of the light chain (limits as in the source). Parent: KSSQSVLYESRNKNSVA, WASTRES, QQYHRLPLS.
This list holds designs with more than six substitutions.
Kd is apparent (estimated from mating counts) and averaged on the log scale over replicates with a signal. Smaller is tighter.
"no signal" means that the variant was in the library but no mating with the target was seen in any replicate; the authors take this as a sign of poor binding, and no number exists.
The list is sorted by this average, lowest first, undetected variants last.
The range of this assay differs from that of the first round, and the authors advise against merging the two.
In the paper, a design with two or fewer of six values counts as a poor binder.
Three control strains display no target. For all light chain designs, 4% of the pairings with them gave a signal, with a median of 430 nM and one signal in twenty below 38 nM, so weak values seen in few replicates may be background.
The parent sequence was in this pool as ten entries: three were never detected, three once, and four in most replicates, with averages from 2.2 nM to 240 nM.

With ALQQSELYGSRNKNSVA | NASTRED | QQYHRLPLS the result was 800 pM (6 of 6 replicates). With KLSGSMLYEQRMLNSVA | QASQRMS | QQYHRLPLS the result was 820 pM (6 of 6 replicates). The variant TISQSAQMESHNKNSVA | DLNLRGQ | QQYDRLPLS showed 910 pM (6 of 6 replicates). With HLSDSVLYESRNQNSVA | NASTREM | QQYHRLPLN the result was 1.0 nM (6 of 6 replicates). The variant TLSQVHGMLSHNKNSVA | DMNTRGS | QQYDRLPLS gave 1.0 nM (6 of 6 replicates). With KVSQKDPMESRNKNSVA | HASLRES | QQYHRLPLS the result was 1.0 nM (6 of 6 replicates).

The variant HLSQSADLESVHKNSIA | DLMTRES | QQYHRLPLS showed 1.1 nM (6 of 6 replicates). With KIGGVTNGISRNKNSVA | EQSTRED | QQYNRLPLS the result was 1.3 nM (6 of 6 replicates). For KLSQSDWYQSRMDNSVA | NASTRES | QQYHRLPLS, the assay gave 1.4 nM (6 of 6 replicates). For KFEGSEGYGSRNKNSVA | EASHRMS | QQYHRLPLS, the assay gave 1.4 nM (6 of 6 replicates). The variant KLQQADLYESRNKNSVA | QASTRSD | QCYHRLPLS gave 1.5 nM (6 of 6 replicates). The variant KLSQSVLMESRMVNSVA | DASQREE | QQYHRLPLS showed 1.5 nM (6 of 6 replicates).

The variant TISNVMNTLSRHGNNVA | DLAERED | QQYFRLPLS showed 1.6 nM (6 of 6 replicates). With KVNGLMNISQMNSKSVA | QSSTREN | QQYHRLPLS the result was 1.6 nM (6 of 6 replicates). The variant QISMLLNFESYKVNNVA | QMETRVN | QQYDRLPLS gave 2.8 nM (6 of 6 replicates). The variant KLSIMYQHTSRNKNNIA | ERSTREQ | QQYHHLPLS gave 3.2 nM (6 of 6 replicates). The variant KIGMTLNQLMHQKQNVA | DLVTREN | QQYTRLPLS showed 3.7 nM (6 of 6 replicates). The variant KLQGSNLYESRNLNSVA | KASTRLQ | QQYHRLPLS showed 4.8 nM (6 of 6 replicates).

For TISQSYLMENQFKNSVA | QASTRES | QCYDRLPLS, the assay gave 5.9 nM (6 of 6 replicates). For KWSQSVDLESRNDNSVA | DASCRED | QQYHRLPLS, the assay gave 5.9 nM (6 of 6 replicates). For KCEQSWGYESRNKNNVA | NASQRES | QQYHRLPLS, the assay gave 6.1 nM (6 of 6 replicates). The variant NLSYQQFEPTGMVNSVA | QTSLRAH | QQYAHLPLC showed 6.7 nM (6 of 6 replicates). With NLSWKLSGFENEWMAVA | NTSERNA | QQYARLPLS the result was 7.2 nM (6 of 6 replicates). The variant HVSQVKYDQYNAQQNIA | SAAEREW | QQYSRLPFF gave 9.1 nM (6 of 6 replicates).

With HITYGMYVSGRYKSNIA | QAETREK | QQYDRLPLI the result was 9.6 nM (6 of 6 replicates). The variant RMTYKAEQDERHNSSVA | NGSARVF | QQYYMLPLS showed 9.7 nM (6 of 6 replicates). The variant SLTNETDGNYGKNNSVA | DAEELMT | QDYFRLPIT showed 10 nM (6 of 6 replicates). The variant NLMHHQGRYDVWKYSIA | EASIRAS | QQYFRLPLA gave 11 nM (6 of 6 replicates). With MMSQVTGQGMRHRNNVA | QTSTREY | QQYDRLPLI the result was 12 nM (6 of 6 replicates). The variant TISQSVNMTSHGRNSVA | QAEMRES | QQYDRLPLS gave 14 nM (2 of 6 replicates).

The variant KLSMTAEMEIKNRNSVA | ELVTRMS | QQYNRLPLS gave 16 nM (6 of 6 replicates). The variant HLHTINYTEGIGTNSIA | DANLHVT | QQYFRLPIM gave 19 nM (6 of 6 replicates). The variant TISTSAMYESINKNSVA | ELSTRGS | QQYERLPLS showed 24 nM (6 of 6 replicates). With NLMSHQSEISVWKYSIA | EASIRLS | QQYFRLPLA the result was 25 nM (1 of 6 replicates). With MISDMGLHDSRIQNSVA | NNSTREV | QQYDRLPLS the result was 44 nM (6 of 6 replicates). The variant KLQFLALQLQRNKNSVA | SASTRES | QQYHRLPLS gave 47 nM (6 of 6 replicates).

For MIFYGQERDIAHESSIA | NDMARVK | QQYHRLPLS, the assay gave 55 nM (5 of 6 replicates). For TIGQTLMIGMRNRSNVA | EVSQRLN | QQYDRLPLL, the assay gave 61 nM (6 of 6 replicates). The variant KIYGYMGTLNRQANSIA | DNTTRGN | QQYHRLPLS gave 81 nM (1 of 6 replicates). The variant AVSIEHTENTRYWNAIA | DLSQRNN | QQYDQLPLS showed 95 nM (4 of 6 replicates). For KLMQSVWQESRNKNSVA | HASLREV | QAYHRLPLS, the assay gave 120 nM (6 of 6 replicates). The variant KLRESTHVESKQKNNVA | DNSTRES | QDYHRLPLS showed 160 nM (4 of 6 replicates).

For KISQMVRVGATHNNSIA | EEQTRAK | QQYHRLPLS, the assay gave 180 nM (3 of 6 replicates). The variant FLTYAQDQTGLQYNAIA | QVNLKEN | QQYGRLPLA showed 200 nM (1 of 6 replicates). The variant MVSQLMLWGLHAKNSIA | EAEHRIN | QQYDRLPLF gave 270 nM (5 of 6 replicates). The variant KVTEMMAFLSSNRNSVA | DNSTRGS | QQYHRLPLS gave 1.5 µM (1 of 6 replicates). For RLSALSGIQSVERNSVA | QNSTREE | QQYDHLPLS, the assay gave 2.1 µM (4 of 6 replicates). The variant KMNMAVSQDLMDEQSVA | DHMTEVT | QQYGRLPLS showed no signal (0 of 6 replicates).

For FITGNYYDKYQASNSIA | DEAHIRA | QQYDLLPLS, the assay gave no signal (0 of 6 replicates).

The last 4 entries again:

CDR-L1,CDR-L2,CDR-L3,Kd (apparent),detected
KVTEMMAFLSSNRNSVA,DNSTRGS,QQYHRLPLS,1.5 µM,1 of 6
RLSALSGIQSVERNSVA,QNSTREE,QQYDHLPLS,2.1 µM,4 of 6
KMNMAVSQDLMDEQSVA,DHMTEVT,QQYGRLPLS,no signal,0 of 6
FITGNYYDKYQASNSIA,DEAHIRA,QQYDLLPLS,no signal,0 of 6